Test results reported in paper PMC8214093, “Structural basis of KdpD histidine kinase binding to the second messenger c-di-AMP” (The Journal of Biological Chemistry, 2021).

Target: T1, USPSa-H331A (Staphylococcus aureus, UniProt A0A7U7EVR3, H331A)
T1 sequence (A0A7U7EVR3 213-364 H331A): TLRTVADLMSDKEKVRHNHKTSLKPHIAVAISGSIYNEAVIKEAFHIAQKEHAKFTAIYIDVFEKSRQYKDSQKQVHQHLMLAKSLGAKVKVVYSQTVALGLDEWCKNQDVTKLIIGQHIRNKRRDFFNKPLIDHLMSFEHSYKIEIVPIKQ
Assay: MicroScale Thermophoresis (initial fluorescence change) nucleotide binding
Conditions: His331 to Ala mutant; relative to WT USPSa
Description: The ligand-binding specificity of USPSa, the role of USPSa residues in c-di-AMP binding, and the c-di-AMP binding affinity of USP homologs were biochemically determined by MST, using purified WT and mutant proteins. […] For these MST experiments, WT and active-site mutants of His6-USPSa were first fluorescently labeled using a RED-Tris NTA Monolith His-Tag labeling kit (Nanotemper, Technologies, Inc). For labeling, the proteins were diluted to a concentration of 800 nM in binding buffer (50 mM potassium phosphate, pH 8.0, 800 mM NaCl, and 0.05% Tween 20), mixed with an equal volume of RED-Tris-NTA dye (80 nM), and incubated on ice in the dark for 30 min. […]
The samples were then loaded into Monolith standard-treated capillaries in triplicate, and the changes in fluorescence were measured with 40% LED power and 20% IR-laser power for an on-time of 20-s at 23 °C. To determine the binding affinity, the ligand-dependent changes in the intensity of the initial fluorescence, or the thermophoretic mobility, were analyzed according to the law of mass action in a standard fitting mode of MO.Affinity analysis software (version 2.3). […] In the His6-peptide test, a control His6-peptide was used instead of USP in the binding assay described above, and if no change in initial fluorescence occurred, this confirmed the USP-specific binding of ligands. […]

SMILES: Nc1ncnc2c1ncn2[C@@H]1O[C@@H]2COP(=O)(O)O[C@H]3[C@@H](O)[C@H](n4cnc5c(N)ncnc54)O[C@@H]3COP(=O)(O)O[C@H]2[C@H]1O [c-di-AMP, cyclic-di-adenosine monophosphate]
- loss of relative binding affinity: ~60%
